# From article PMC10296347, “Identification of the Stapled α-Helical Peptide ATSP-7041 as a Substrate and Strong Inhibitor of OATP1B1 In Vitro” (Biomolecules, 2023)
# Sequences of proteins named here, by UniProt entry; tags and fusion partners are left off.
# UniProt P10635, whole entry: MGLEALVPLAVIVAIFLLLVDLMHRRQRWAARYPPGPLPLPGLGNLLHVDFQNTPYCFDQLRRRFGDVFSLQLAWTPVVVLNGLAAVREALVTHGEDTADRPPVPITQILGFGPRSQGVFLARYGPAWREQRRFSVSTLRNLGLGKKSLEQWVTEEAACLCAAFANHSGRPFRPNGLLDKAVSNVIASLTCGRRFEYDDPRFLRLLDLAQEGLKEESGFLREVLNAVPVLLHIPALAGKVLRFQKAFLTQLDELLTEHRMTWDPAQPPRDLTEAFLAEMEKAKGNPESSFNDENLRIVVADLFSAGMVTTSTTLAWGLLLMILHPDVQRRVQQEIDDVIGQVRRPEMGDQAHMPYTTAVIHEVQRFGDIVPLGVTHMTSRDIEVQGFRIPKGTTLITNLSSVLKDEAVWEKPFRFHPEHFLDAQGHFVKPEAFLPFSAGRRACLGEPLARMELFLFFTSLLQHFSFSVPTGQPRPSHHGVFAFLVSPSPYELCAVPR
# UniProt P05177, whole entry: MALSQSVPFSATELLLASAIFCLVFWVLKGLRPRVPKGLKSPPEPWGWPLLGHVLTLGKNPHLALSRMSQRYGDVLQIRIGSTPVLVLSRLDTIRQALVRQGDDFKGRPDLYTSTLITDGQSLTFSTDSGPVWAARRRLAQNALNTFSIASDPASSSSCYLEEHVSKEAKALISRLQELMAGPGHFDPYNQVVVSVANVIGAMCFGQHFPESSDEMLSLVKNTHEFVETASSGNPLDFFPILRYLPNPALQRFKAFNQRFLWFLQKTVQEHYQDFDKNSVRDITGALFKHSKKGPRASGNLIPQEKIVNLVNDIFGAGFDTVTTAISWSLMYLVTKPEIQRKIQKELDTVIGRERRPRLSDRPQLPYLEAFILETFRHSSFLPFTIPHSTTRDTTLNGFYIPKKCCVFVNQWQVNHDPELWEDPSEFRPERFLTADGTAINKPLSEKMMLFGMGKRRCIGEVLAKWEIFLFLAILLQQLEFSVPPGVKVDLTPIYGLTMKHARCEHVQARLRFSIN
# Tests used:
# CYP2D6 = CYP2D6 (Homo sapiens, UniProt P10635); test: CYP inhibitor screening kit, yeast microsomes expressing human CYP2D6; conditions: Quinidine 3 μM
# CYP1A2 = CYP1A2 (Homo sapiens, UniProt P05177); test: CYP inhibitor screening kit, yeast microsomes expressing human CYP1A2; conditions: α-naphthoflavone 6 μM
"Residual activity (% of control) CYP1A2, positive control inhibitor (CYP1A2)",Compound,"Residual activity (% of control) CYP2D6, positive control inhibitor (CYP2D6)"
–,C=C[C@H]1C[N@@]2CC[C@H]1C[C@@H]2[C@@H](O)c1ccnc2ccc(OC)cc12 [Quinidine],2.25 ± 0.24 % of control
≈ 0 % of control,O=c1cc(-c2ccccc2)oc2c1ccc1ccccc12 [α-naphthoflavone],–
